# Apparent affinities of Ab-14 variants for a coronavirus HR2 peptide

Binding partner: SARS-CoV-2 spike HR2 peptide, sequence PDVDLGDISGINAS.

Ab-14 is the parent antibody, in scFv form: VH, then three GGGGS repeats, then VL. The heavy chain is unchanged in all variants.
VH: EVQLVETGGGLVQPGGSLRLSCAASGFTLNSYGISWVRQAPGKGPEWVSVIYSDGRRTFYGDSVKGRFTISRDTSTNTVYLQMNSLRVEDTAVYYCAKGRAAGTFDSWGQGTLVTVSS
VL: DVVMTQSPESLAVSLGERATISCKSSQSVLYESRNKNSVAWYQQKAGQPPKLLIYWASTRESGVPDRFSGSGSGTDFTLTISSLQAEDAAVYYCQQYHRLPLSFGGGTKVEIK

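These sequences belong to a second round, designed from the earlier measurements on random variants of the parent. Their group label is 14L_GP_HC (GP: Gaussian process model; HC: hill climbing; a sequence that several methods proposed may carry one label only). AlphaSeq pools MATa yeast showing the antibodies with MATalpha yeast showing the peptide. The frequency of each diploid, read from paired DNA barcodes, reflects how well the two displayed proteins bind. The ratio of observed to expected reads was calibrated, replicate by replicate, on BCL2-family standards whose Kd was known from biolayer interferometry. There are six technical replicates.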

Variants are written as CDR1, CDR2 and CDR3 of the light chain (limits as in the source). Parent: KSSQSVLYESRNKNSVA, WASTRES, QQYHRLPLS. Scale: log10 of Kd in nM, estimated from mating counts; low values are strong binders. A mean of the replicates is given; it leaves out those without a signal. "n.d." means that the variant was in the library but no mating with the target was seen in that replicate; the authors take this as a sign of poor binding, and no number exists. In the paper, a design with two or fewer of six values counts as a poor binder. As a blank, each scFv also met three strains without target: over all light chain designs, 4% of these pairings were detected, typically at 2.64 and seldom below 1.59. The control count says in how many pairings with the empty strains this scFv gave a signal, with their mean in brackets. Of ten entries with the parent sequence, four were seen in most replicates (averages 0.34 to 2.37), three in one and three in none, so single entries are noisy. The range of this assay differs from that of the first round, and the authors advise against merging the two.

CDR-L1,CDR-L2,CDR-L3,log10 Kd (nM) by replicate,"mean, log10 nM",control signals
HSSPSQLYESRNKNNVA,NASTRES,QQYHRLPLS,-0.43 -0.44 -0.75 -0.67 -0.44 -0.57,-0.55,1 of 18 (2.22)
KVSPSYLYESRNKNSVA,DASTRES,QQYHRLPLS,-0.11 -0.18 -0.37 -0.05 0.16 0.19,-0.06,0 of 18
KSSISYLEESRNKNSVA,EASTREM,QQYHRLPLS,0.33 0.33 0.10 0.33 0.08 0.36,0.26,0 of 18
KSSTSYLYESRNENSVA,EASTREQ,QQYHRLPLS,0.21 0.05 0.30 0.34 0.70 0.58,0.36,0 of 18
KWLQSQEYESRNKNSVA,HASTRED,QQYHCLPLS,n.d. n.d. n.d. n.d. n.d. n.d.,n.d.,0 of 18
KSGQGDLYESRNKNSVA,GASLRES,QQYHRLPLS,0.55 0.29 0.03 0.52 0.19 0.69,0.38,2 of 18 (2.69)
KVSQSVKFESRNKNSVA,DASTRES,QQYHRLPLS,0.16 0.24 -0.03 -0.09 -0.06 0.11,0.06,2 of 18 (2.91)
KSSQSWLYESRNKNSVA,GASTREY,QQYHRLPLS,0.23 -0.29 -0.12 -0.45 -0.27 -0.12,-0.17,0 of 18
KSSMLYLEESRNKNSVA,EASTRES,QQYHRLPLS,0.17 0.09 0.04 -0.47 0.30 0.17,0.05,0 of 18
KSSQSVLYESMNKNSVA,NASTRMS,QQYHRLPLS,0.58 0.32 0.41 0.47 0.47 0.65,0.48,3 of 18 (2.88)
KVSQSVLYEGRNKNSVA,HASTRED,QQYHRLPLS,0.07 -0.01 -0.04 -0.09 -0.04 0.20,0.01,2 of 18 (2.58)
KLRQSPLYESRNKNSVA,NASTRES,QQYHRLPLS,0.28 0.24 -0.05 0.07 -0.09 0.10,0.09,1 of 18 (2.23)
KESQSWIYESRNKNSVA,NASTRES,QQYHRLPLS,0.24 -0.02 0.26 -0.20 0.04 0.28,0.10,3 of 18 (4.05)
KLSQSVLYEDRVKNSVA,GASTRES,QQYHRLPLS,-0.37 -0.02 -0.27 -0.04 0.03 0.10,-0.09,0 of 18
KLEQSTLYESRNKNSVA,EASTRES,QQYHRLPLS,-0.15 -0.14 -0.27 -0.36 -0.31 0.05,-0.20,3 of 18 (2.13)
KSSISYLYESRNENSVA,EASIREQ,QQYHRLPLS,0.88 0.32 0.50 0.92 0.98 0.73,0.72,1 of 18 (2.61)
KLLQSVLYESRDKNSVA,HASTRLD,QQYHRLPLS,0.21 0.20 0.27 -0.07 0.21 0.25,0.18,0 of 18
KVSQEKLYESRNKNSVA,DASTRES,QQYHRLPLS,-0.08 -0.25 -0.37 -0.51 -0.42 -0.30,-0.32,3 of 18 (3.30)
KSSISYLYESRMKNSVA,EASTRES,QQYHRLPLS,1.10 0.48 1.14 0.32 0.16 0.84,0.67,0 of 18
KMSKSVLFESRNKNSVA,NASTRES,QQYHRLPLS,-0.16 -0.31 -0.36 -0.44 -0.30 -0.16,-0.29,2 of 18 (1.95)
KSPQGVLYESRNKNSVA,GASTRES,QQYHRLPLH,n.d. n.d. n.d. n.d. n.d. n.d.,n.d.,0 of 18
KSSQSVKMESRNKNSVA,EASTRES,QQYHRLPLS,0.55 0.62 0.67 0.52 0.49 0.62,0.58,3 of 18 (2.90)
HLSDSVLYESRNKNSVA,NASTRES,QQYHRLPLE,-0.01 -0.14 -0.22 -0.20 -0.18 0.09,-0.11,0 of 18
KQSQSKLCESRNKNSVA,DASTRES,QQYHRLPLS,0.10 -0.01 0.00 -0.24 -0.10 0.06,-0.03,1 of 18 (2.97)
KQSQSDLYESRNKNSVA,GASTRES,QQYHRLPLS,0.05 -0.10 0.00 -0.19 -0.15 0.21,-0.03,0 of 18
KLRQSTLYESRNKNSVA,LASTRES,QQYHRLPLS,n.d. 1.74 0.40 0.92 0.41 1.34,0.96,0 of 18
KSSQSYHYESRNKNSVA,NASTRES,QQYHRLPLS,0.86 0.27 0.62 0.54 0.48 0.73,0.58,1 of 18 (3.03)
KLQQSVLYESRDKNSVA,HASTRED,QQYHRLPLS,-0.12 -0.22 -0.06 -0.77 0.11 -0.03,-0.18,0 of 18
KHSISYLEESRNKNSVA,EASTRES,QQYHRLPLS,0.75 0.51 0.51 0.35 0.36 0.55,0.50,1 of 18 (3.05)
KSSQSWLYESRNFWSVA,EASTRES,QQYHRLPLS,0.50 0.74 0.61 0.66 0.65 0.67,0.64,0 of 18
KVRQSWLYESRNKNSVA,NASTRES,QQYHRLPLS,0.20 0.33 0.27 0.01 0.23 0.31,0.22,1 of 18 (2.74)
KQSQSVLMESRNVNSVA,DASTRES,QQYVRLPLS,0.47 0.98 0.48 -0.01 0.22 1.43,0.60,0 of 18
KFSQSDLYESRNKNSVA,DANTRES,QQYHRLPLS,-0.12 -0.47 -0.16 -0.51 0.12 0.80,-0.06,0 of 18
KLVQSTLYESRNKNSVA,NASTRES,QQYHRLPLS,0.32 -0.18 -0.49 -0.35 -0.25 -0.06,-0.17,2 of 18 (4.15)
KVLQSVLYEGRNKNSVA,HASTRED,QQYHRLPLS,0.09 0.02 -0.15 -0.16 0.01 0.07,-0.02,2 of 18 (3.70)

The first 2 variants above that were never detected:

CDR-L1	CDR-L2	CDR-L3	log10 Kd (nM) by replicate	mean, log10 nM	control signals
KWLQSQEYESRNKNSVA	HASTRED	QQYHCLPLS	n.d. n.d. n.d. n.d. n.d. n.d.	n.d.	0 of 18
KSPQGVLYESRNKNSVA	GASTRES	QQYHRLPLH	n.d. n.d. n.d. n.d. n.d. n.d.	n.d.	0 of 18

Source: Li et al. 2023 (doi:10.1038/s41467-023-39022-2), MIT Lincoln Laboratory and A-Alpha Bio; data file from the FLAb repository.